In the SangsterLogP compilation:

Conditions: pH 7.0

logD: 0.33
Compound: COc1cc2c(c(OC)c1OC)-c1ccc(OC)c(=O)cc1[C@@H](NC(C)=O)[C@H](O)C2
